# According to BindingDB's records for doi:10.1073/pnas.88.17.7491 (Duke University, 1991):
# Protein sequences, listed by entry. Tags and fused reporters are not part of them.
# UniProt P21728, whole entry: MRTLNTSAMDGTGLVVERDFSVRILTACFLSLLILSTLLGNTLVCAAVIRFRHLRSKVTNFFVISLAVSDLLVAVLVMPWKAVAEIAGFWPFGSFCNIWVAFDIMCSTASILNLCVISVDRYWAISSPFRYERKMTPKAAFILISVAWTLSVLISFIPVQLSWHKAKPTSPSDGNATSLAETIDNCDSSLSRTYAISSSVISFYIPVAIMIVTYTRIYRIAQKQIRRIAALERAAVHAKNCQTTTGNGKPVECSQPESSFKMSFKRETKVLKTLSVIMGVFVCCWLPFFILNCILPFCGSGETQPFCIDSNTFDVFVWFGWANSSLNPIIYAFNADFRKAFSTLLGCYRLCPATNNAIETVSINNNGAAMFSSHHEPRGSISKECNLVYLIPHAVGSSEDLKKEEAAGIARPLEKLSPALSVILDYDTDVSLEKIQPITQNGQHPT
# Biological target: D(1A) dopamine receptor (Homo sapiens, UniProt P21728)
structure (smiles),measurement,value
OCCN1CCN(CCCC2c3ccc(F)cc3Sc3ccc(C(F)(F)F)cc32)CC1 (stereo unspecified) [NSC_68751],Ki,24 nM
